Experimental data reported in publication PMC6779874, “ACT001, a novel PAI-1 inhibitor, exerts synergistic effects in combination with cisplatin by inhibiting PI3K/AKT pathway in glioma” (Cell Death & Disease, 2019).

Sequences of proteins named here, by UniProt entry; tags and fusion partners are left off. Residues count along the entry.
UniProt P05121, 24-402: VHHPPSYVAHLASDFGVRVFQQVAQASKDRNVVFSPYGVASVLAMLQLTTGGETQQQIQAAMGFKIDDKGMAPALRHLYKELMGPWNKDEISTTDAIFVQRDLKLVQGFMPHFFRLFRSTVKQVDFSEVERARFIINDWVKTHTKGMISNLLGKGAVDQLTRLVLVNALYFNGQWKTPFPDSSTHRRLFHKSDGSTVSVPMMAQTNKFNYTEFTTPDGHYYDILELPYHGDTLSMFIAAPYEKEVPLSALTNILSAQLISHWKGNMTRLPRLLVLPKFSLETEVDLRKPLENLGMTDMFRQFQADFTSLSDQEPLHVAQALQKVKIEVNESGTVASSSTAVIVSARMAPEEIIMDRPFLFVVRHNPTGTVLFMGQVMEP

Target: PAI-1 (plasminogen activator inhibitor-1) (Homo sapiens, UniProt P05121)
Experiment: biochemical
Parameters: gene SERPINE1

Q: How did the Kd turn out when `O=C(O)C(=O)c1cn(Cc2ccccc2)c2ccc(-c3ccc(OC(F)(F)F)cc3)cc12` [PAI-039] was run?
A: Its Kd is 4.51 µM.
